# Compound activity deposited in PubChem by Broad Institute.
# Wnt act: activators of Wnt/beta-catenin signaling | Wnt/beta-catenin reporter cell assay, activator, plate reader | 1.2% of 300,000 active | activation, % at 9.35 µM; in the data active = activation above about 30%, passing the limit was not always enough;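 also: 0% = neutral control wells and 100% = positive control wells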
# Yeast UUG start: alters start codon recognition fidelity in yeast. S. cerevisiae UUG-firefly luciferase reporter, luminescence/redox ratio. 350,000 tested, 0.13% active. activity score, % at 18.7 µM. AID 602363;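 active means replicate mean at a twofold rise or more, about +100% in these data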;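 further: firefly luciferase made from a UUG start codon reports start codon fidelity; reporter light over untreated wells divided by growth signal over untreated wells; some hits fall short of that in this replicate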
# MITF TRPM1 inh: reduces MITF-dependent TRPM1 promoter luciferase signal; inhibition, % at 12.5 µM; 0.83% of 330,000 active; SK-MEL-5 TRPM1 promoter luciferase, 24 h; AID 488899;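 active = mean inhibition across replicates of 60% or more, whatever share of single replicates reaches that level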
# PGC1a acetyl inh: PGC1a acetylation modulation, inhibitor mode | inhibition, % at 15.6 µM | AID 651687 | 0.17% of 350,000 active | U2OS PGC1a acetylation, AlphaScreen anti-acetyl-lysine; with virally co-expressed GCN5 acetyltransferase;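 active = every replicate shows inhibition of at least 40%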;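 also: 0% = neutral control wells and 100% = positive control wells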
# miR122 inh: blocks miR-122 activity in Huh7 sensor cells; Huh7 miR-122 Renilla luciferase sensor, 48 h; neutral wells = 0, positive control = 100; activation (reporter increase), % at 12.5 µM; 0.3% of 340,000 active; AID 602342;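 active = mean replicate activation score at least 90 and every replicate individually at or above 90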;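 also: higher luciferase means less miR-122 activity so hits act as miR-122 inhibitors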
# MITF act: increases MITF-driven TRPM1 promoter luciferase signal; SK-MEL-5 TRPM1-promoter luciferase, 24 h; % of positive control, neutral wells = 0; activation, % at 12.5 µM; 0.75% of 300,000 active;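 active = mean activation of at least 80% with every replicate also reaching 80%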;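 also: 0% = neutral control wells and 100% = parthenolide positive control wells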
# * hit, by the source's call; . = no result; [ ] = dose if it differs, or a comment. The list is not random: actives were taken first. Their share in the collection is about 2.1%.
1	COc1ccc(N2CC(O)=C(c3nc(C)cs3)C2=N)cc1
2	N=C1C(c2nc3ccccc3s2)=C(O)CN1Cc1ccco1
3	Nc1ccc2c(c1)C(=O)c1ccccc1C2=O
4	Nc1ccc2c(c1)C(=O)C(=O)c1ccccc1-2
5	Nc1ccc2c(c1)C(=O)c1ccccc1-2
6	O=C1C(=O)c2ccc(-c3ccccc3)cc2-c2ccccc21

assay / compound	1	2	3	4	5	6
Yeast UUG start	-11	0	-27	.	-15	-35
Wnt act	-2	.	40*	.	32*	.
MITF act	-9	88*	104*	-106	.	-104
MITF TRPM1 inh	13	-85	-108	107*	-12	104*
PGC1a acetyl inh	-17	-9	.	107*	-8	13
miR122 inh	8	5	-8	-31	-5	-6

7	Nc1ccc2c(c1)C(=O)c1ccc(Br)cc1-2
8	Cc1noc(C)c1NC(=O)N(C)C[C@H]1Oc2c(NS(=O)(=O)c3cn(C)cn3)cccc2C(=O)N([C@H](C)CO)C[C@H]1C
9	Cc1noc(C)c1NC(=O)Nc1ccc2c(c1)C(=O)N([C@H](C)CO)C[C@H](C)[C@H](CN(C)Cc1ccc(Cl)c(Cl)c1)OCCCC[C@@H](C)O2
10	Cc1scc(C(=O)N/N=C/c2ccc([N+](=O)[O-])o2)c1C
11	Cc1nc2ccccn2c1C(=O)N/N=C/c1ccc(CNC(=O)C(=O)Nc2ccccc2)o1
12	O=C(N/N=C/c1ccc([N+](=O)[O-])o1)c1ccncc1

assay / compound	7	8	9	10	11	12
Yeast UUG start	-38	8	6	0	.	0
Wnt act	20	.	.	3	.	0
MITF act	14	.	.	-100	6	.
MITF TRPM1 inh	-16	.	.	100*	-5	.
PGC1a acetyl inh	12	-1	8	.	.	-11
miR122 inh	-1	-22[16.7 µM]	-2[16.7 µM]	-2	.	-5

13	Cc1nc2ccccn2c1C(=O)N/N=C/c1ccc([N+](=O)[O-])o1
14	O=C(N/N=C/c1ccc([N+](=O)[O-])o1)c1cc2ccccc2o1
15	O=C(N/N=C/c1ccc([N+](=O)[O-])o1)c1ccc(O)cc1
16	Cc1scc(C(=O)N/N=C/c2ccco2)c1C
17	CCCNC(=O)C[C@@H]1CC[C@H]2[C@@H](COc3ccc(NC(=O)CCC)cc3C(=O)N2C)O1
18	CC(=O)N(C)C[C@H]1Oc2cc(C#Cc3ccncc3)ccc2S(=O)(=O)N([C@@H](C)CO)C[C@H]1C

assay / compound	13	14	15	16	17	18
Yeast UUG start	.	.	-12	-17	-2	4
Wnt act	0	9	5	.	.	.
MITF act	-71	-97	-86	46	.	.
MITF TRPM1 inh	69*	98*	87*	-41	.	.
PGC1a acetyl inh	-22	-329	-64	.	2	0
miR122 inh	.	.	-18	-3	-1[16.7 µM]	-23[16.7 µM]

# Rewritten bar-delimited: entries from further up
item | SMILES | Yeast UUG start | Wnt act | MITF act | MITF TRPM1 inh | PGC1a acetyl inh | miR122 inh
15 | O=C(N/N=C/c1ccc([N+](=O)[O-])o1)c1ccc(O)cc1 | -12 | 5 | -86 | 87* | -64 | -18
16 | Cc1scc(C(=O)N/N=C/c2ccco2)c1C | -17 | . | 46 | -41 | . | -3
17 | CCCNC(=O)C[C@@H]1CC[C@H]2[C@@H](COc3ccc(NC(=O)CCC)cc3C(=O)N2C)O1 | -2 | . | . | . | 2 | -1[16.7 µM]

# Following part
19	CCCc1cn(CC[C@@H]2CC[C@@H](NC(=O)C3CC3)[C@@H](CO)O2)nn1
20	C[C@@H]1CN([C@H](C)CO)C(=O)c2cc(NS(=O)(=O)c3ccc(F)cc3)ccc2O[C@@H](C)CCCCO[C@@H]1CN(C)Cc1ccncc1
21	CCNC(=O)C[C@H]1CC[C@@H](NS(=O)(=O)c2ccc(C)cc2)[C@@H](CO)O1
22	CCN(CC)S(=O)(=O)c1cccc(C(=O)N/N=C/c2ccc([N+](=O)[O-])o2)c1
23	O=C(N/N=C\c1ccc([N+](=O)[O-])o1)c1cncc(Br)c1
24	CCCCN1C(=O)c2cccc3cc(O)cc(c23)C1=O

assay / compound	19	20	21	22	23	24
Yeast UUG start	-16	17	11	.	-5	-9
Wnt act	.	.	.	-1	0	61*
MITF act	.	.	.	-84	.	.
MITF TRPM1 inh	.	.	.	85*	47	-8
PGC1a acetyl inh	1	10	-5	.	14	25
miR122 inh	.	4[16.7 µM]	.	.	.	-3

25	CN(C)CCCN1C(=O)c2cccc3cccc(c23)C1=O
26	CN(C)CCN1C(=O)c2cccc3cc([N+](=O)[O-])cc(c23)C1=O
27	O=C(O)CCCN1C(=O)c2cccc3cccc(c23)C1=O
28	COc1ccccc1-c1cnc2c(c1)C(=O)N([C@@H](C)CO)C[C@@H](C)[C@H](CN(C)Cc1ccc(F)cc1)O2
29	CCC(=O)Nc1ccc2c(c1)OC[C@H](C)N(Cc1cncnc1)C[C@@H](C)[C@H](OC)CN(C)C2=O
30	COc1ccc(CN(C)C[C@@H]2OCCCC[C@@H](C)Oc3ccc(NC(=O)CCCN(C)C)cc3C(=O)N([C@@H](C)CO)C[C@@H]2C)cc1
31	CO[C@H]1CN(C)C(=O)c2ccc(NC(=O)C3CCOCC3)cc2OC[C@@H](C)N(C(=O)c2ccccc2)C[C@@H]1C
32	Fc1ccc2c(Cl)c(-c3nnc(-c4cccs4)o3)sc2c1
33	Cc1cc(C(=O)COC(=O)c2cc(Cl)ccc2N)c(C)n1Cc1ccco1

assay / compound	25	26	27	28	29	30	31	32	33
Yeast UUG start	-21	.	-19	-8	-13	.	.	-15	.
Wnt act	-1	-17	0	.	.	.	.	44*	10
MITF act	.	.	1	.	.	.	.	.	106*
MITF TRPM1 inh	9	84*	-2	.	.	.	.	-7	-107
PGC1a acetyl inh	.	14	.	-20	3	-4	4	.	.
miR122 inh	.	1	.	1[16.7 µM]	-4[16.7 µM]	.	.	5	.
